# According to patent publication US10258598B2, “Compounds for use in the prevention or treatment of cancer” ([…], priority 2014, dated 2019):
# Sequences of proteins named here, by UniProt entry; tags and fusion partners are left off.
# UniProt P19643, whole entry: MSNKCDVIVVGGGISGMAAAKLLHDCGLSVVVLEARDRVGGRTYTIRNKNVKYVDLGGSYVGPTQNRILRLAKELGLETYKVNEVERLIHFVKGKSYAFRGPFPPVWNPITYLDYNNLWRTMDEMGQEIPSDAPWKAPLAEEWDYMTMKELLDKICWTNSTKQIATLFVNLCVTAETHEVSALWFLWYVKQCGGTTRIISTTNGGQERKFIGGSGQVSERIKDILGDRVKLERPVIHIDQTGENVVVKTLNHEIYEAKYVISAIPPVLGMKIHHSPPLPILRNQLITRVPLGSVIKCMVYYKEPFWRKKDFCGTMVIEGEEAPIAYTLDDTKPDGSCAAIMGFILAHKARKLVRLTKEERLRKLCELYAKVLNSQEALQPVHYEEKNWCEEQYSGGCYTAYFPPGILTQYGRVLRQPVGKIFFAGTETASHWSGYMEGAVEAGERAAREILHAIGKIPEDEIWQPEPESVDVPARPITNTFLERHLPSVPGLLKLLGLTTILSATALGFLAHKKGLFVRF
# How the values were obtained:
# Daoy HTB-186 cell line = test: MTT proliferation assay, Daoy medulloblastoma cells; assay type: cell-based, human; conditions: 10^-13 or 10^-8 M combined with temozolomide, Cisplatin, etoposide or Vincristin, 72 hours
# Description: (§1) Human medulloblastoma cell line, Daoy was purchased from ATCCC, UW-228 was obtained from the courtesy of Professor Silber (University of Washington, Seattle, Wash., USA).
# (§2) Daoy and UW-228-2 cell lines were maintained in culture medium (each 500 ml Minimum Essential Medium Eagle, Alpha Modification (M8042, Sigma, St Louis, USA) with 50 ml FCS (Gibco), 40 mg Gentamicin (Sandoz), 5 ml sodium-pyruvate (S8636, Sigma, St Louis, USA), 5 ml non-essential-amino acid solution (M7145, Sigma, St Louis, USA), 10 ml L-glutamin (Sigma, St Louis, USA) at 37° C. in humified 5% CO2.
# (§3) In each well 3×10^3 Daoy or UW-228-2 cells were seeded in 96-well plates (Sarstedt), solved in 100 µl of its own medium with 10% FCS. 24 hours after seeding, cells were treated for 72 hours by drugs solved in further 100 μl medium. […]
# (§4) Cell proliferation was evaluated by MTT (3-(4,5-Dimethylthiazol-2-yl)-2,5-diphenyltetrazolium bromide) assay (M5655, Sigma) after 72-hour treatment by the method described in manufacturer's protocol.
# UW-228-2 cell line = test: MTT proliferation assay, UW-228-2 medulloblastoma cells; assay type: cell-based, human; conditions: 10^-13 or 10^-8 M combined with temozolomide, Cisplatin, etoposide or Vincristin, 72 hours
# Description: as §1, §2, §3, §4
# MAO-B = MAO-B (Rattus norvegicus, UniProt P19643); conditions: dose used in two earlier longevity studies; cited from earlier work
smiles,measurement,setting,value
"C#CCN(C)[C@H](C)Cc1ccccc1 [(−)-Deprenyl, (R)—N-methyl-N-(1-phenylpropan-2-yl)prop-2-yn-1-amine]",effectiveness of tumor-cell proliferation inhibiting agents in combination,Daoy HTB-186 cell line,did not change the effectiveness
same,effectiveness of tumor-cell proliferation inhibiting agents in combination,UW-228-2 cell line,did not change the effectiveness
same,dose which completely blocks MAO-B activity in the brain,MAO-B,0.25 mg/kg
